The nature of data set [1]: Henry solubility constant Hcp at 298.15 K (mol/(m3 Pa)).
A short description of data set [2]: Henry solubility constant Hcp at 293 K (mol/(m3 Pa)). The following applies: reference: Kames and Schurath (1992).
Where [3] appears, read: reference: Kames and Schurath (1992).
Setting [4] is: reference: Shepson et al. (1996).

On to `CCCCO[N+](=O)[O-]` [1-butyl nitrate], for which the “Henry solubility constant Hcp” value in data set [1] (setting [3]) turned out to be 0.01. On to `CCC(O)CO[N+](=O)[O-]` (configuration not stated) [1-nitrooxy-2-butanol], for which the “Henry solubility constant Hcp” value in data set [1] (setting [4]) is 57. Take `CCCCCO[N+](=O)[O-]` [1-pentyl nitrate]: the “Henry solubility constant Hcp at 293 K” value in data set [2] is 0.012.

In the case of `CCC(C)O[N+](=O)[O-]` (configuration not stated) [2-butyl nitrate], the “Henry solubility constant Hcp” value in data set [1] (setting [3]) came to 0.0064. Consider `CCC(CO)O[N+](=O)[O-]` (configuration not stated) [2-nitrooxy-1-butanol], for which the “Henry solubility constant Hcp” value in data set [1] (setting [4]) came to 59. Same read-out and setting: next, `CC(O)C(C)O[N+](=O)[O-]` (configuration not stated) [2-nitrooxy-3-butanol]: 100. For `CCCC(C)O[N+](=O)[O-]` (configuration not stated) [2-pentyl nitrate], the “Henry solubility constant Hcp” value in data set [1] (setting [3]) amounted to 0.0036. `CCl` [chloromethane]: the “Henry solubility constant Hcp” value in data set [1] (reference: Boggs and Buck (1958)) was determined as 0.00099; in data set [1] (reference: Chen et al. (2012)) it was 0.00091; in data set [1] (reference: Elliott and Rowland (1993)), 0.0011; in data set [1] (reference: Glew and Moelwyn-Hughes (1953)), 0.001; in data set [1] (reference: Gossett (1987)) it was 0.0012; in data set [1] (reference: Reichl (1995)), 0.00085. Also, in data set [1] (reference: Swain and Thornton (1962)), the “Henry solubility constant Hcp” value is 0.0011.

As for `CCCCOCCCC` [dibutyl ether], the “Henry solubility constant Hcp” value was found to be 0.0072 in data set [1] (reference: Hwang et al. (2010)) and 0.0021 in data set [1] (reference: Ioffe et al. (1984)). Take `CC(C)CO[N+](=O)[O-]` [isobutyl nitrate]: the “Henry solubility constant Hcp” value in data set [1] (setting [3]) was 0.007.

Source of the values: Sander's compilation of Henry's law constants.
